This is a selection; strong and weak results do not stand in their true shares. Activity calls are given as the source filed them. Rule as the data show it: active = inhibition above about 50%; inactive = the rest.
target: Microphthalmia-associated transcription factor (Homo sapiens) (UniProt O75030); experiment: MITF inhibitors, primary screen, biochemical, AlphaScreen, human (AID 1259374); settings: AlphaScreen MITF homodimerization, bead proximity signal; at 2.6 µM; stronger effect = higher value;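 also: 0% = vehicle wells with protein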

By UniProt entry, the sequences of proteins in these tests, tags left out.
UniProt O75030, whole entry: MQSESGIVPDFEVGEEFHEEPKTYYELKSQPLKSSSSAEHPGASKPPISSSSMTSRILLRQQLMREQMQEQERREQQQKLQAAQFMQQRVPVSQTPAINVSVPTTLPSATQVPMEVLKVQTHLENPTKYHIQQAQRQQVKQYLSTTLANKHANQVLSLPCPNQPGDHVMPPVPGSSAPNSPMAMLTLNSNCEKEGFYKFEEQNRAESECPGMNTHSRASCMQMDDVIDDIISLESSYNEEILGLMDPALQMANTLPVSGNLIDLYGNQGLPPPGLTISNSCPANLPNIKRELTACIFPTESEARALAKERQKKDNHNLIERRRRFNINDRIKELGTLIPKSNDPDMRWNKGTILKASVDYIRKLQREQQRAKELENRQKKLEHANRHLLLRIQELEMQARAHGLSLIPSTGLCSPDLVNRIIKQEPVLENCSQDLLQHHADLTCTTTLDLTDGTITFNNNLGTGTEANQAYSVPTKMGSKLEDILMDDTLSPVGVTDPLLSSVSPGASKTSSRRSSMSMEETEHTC

Row | SMILES | inhibition
1 | CCN1CCC(Nc2ccc(Cl)cc2)CC1 | inactive: 3.61%
2 | COc1ccc(CCN2CCC(N(Cc3ccco3)C(C)=O)CC2)cc1 | inactive: 8.09%
3 | COc1ccc(NC2CCN(CCc3cccs3)CC2)cc1 | inactive: 13.5%
4 | O=C(NCC1(N2CCCCC2)CCCCC1)c1cccc([N+](=O)[O-])c1 | inactive: 0.1%
5 | O=C(NCC1(N2CCOCC2)CCCCC1)c1cc(=O)[nH]c2ccccc12 | inactive: 4.46%
6 | CN1CCN(CCOC(=O)C(O)(c2ccccc2)c2ccccc2)CC1 | inactive: 0.21%
7 | COc1ccccc1/C=C/CN1CCN(C(C)=O)CC1 | inactive: -1.89%
8 | COc1cc(OC)c(C(=O)NCC2(N(C)C)CCCCC2)cc1OC | inactive: 14%
9 | Cc1ccc(C(=O)O)cc1N(CCCl)CCCl | inactive: 12.3%
10 | COc1ccc(CN(CCCl)CCCl)cc1Cl | inactive: 14.8%
11 | FC(F)(F)Oc1ccc(NC2CCNCC2)cc1 | inactive: 9.93%
12 | CCN1CCC(Nc2ccccc2F)CC1 | inactive: 24.9%
13 | CCCOc1ccc(C(=O)NCC2(N(C)C)CCCCC2)cc1OC | inactive: -4.84%
14 | Cc1cc(C(=O)NCC2(N3CCOCC3)CCCCC2)c2ccccc2n1 | inactive: 1.04%
15 | O=C(NCC1(N2CCCCC2)CCCCC1)c1cncc(Br)c1 | inactive: 6.34%
16 | CN1CCC(Nc2cccc(F)c2)CC1 | inactive: 22.4%
17 | COc1cccc(OC)c1CN1CCC(Nc2ccccc2)CC1 | inactive: -1.08%
18 | COc1ccc(C(=O)NCC2(N3CCCCC3)CCCCC2)cc1 | inactive: -1.21%
19 | CCCN1CCC(Nc2ccc(OC)c(OC)c2)CC1 | inactive: 16.9%
20 | COc1ccc(C(=O)NCC2(N3CCCCC3)CCCCC2)c(OC)c1OC | inactive: -9.28%
21 | CC1CN(CCc2ccccc2)CCC1=O (centres undefined) | inactive: 0.76%
22 | N#CC1(Nc2ccccc2)CCN(Cc2ccccc2)CC1 | inactive: 7.06%
23 | CCOC(=O)N1CCC(Nc2ccc(OC)cc2)CC1 | inactive: 15.7%

Row | SMILES | inhibition
24 | CN(CCOC(=O)C(O)(c1ccccc1)c1ccccc1)C(C)(C)C | inactive: 16.8%
25 | COc1ccc(NC2CCN(CCc3ccccn3)CC2)cc1 | inactive: 0.31%
26 | CCOC(=O)N1CCC(Nc2ccc(F)cc2)CC1 | inactive: -0.41%
27 | CN(C)P(=O)(OC(C)(C)C(Cl)(Cl)Cl)SCCCCl (centres undefined) | inactive: -18.4%
28 | CCCN1CCC(Nc2ccc(F)cc2)CC1 | inactive: 28.1%
29 | O=C1CCN(Cc2ccccc2)CC1 | inactive: -0.31%
30 | CC(=O)N1CCc2ccc(N(C(=O)C(C)(C)C)C3CCN(Cc4ccccc4)CC3)cc21 | inactive: 3.25%
31 | COc1cccc(CN(CCCl)CCCl)c1 | inactive: 2.88%
32 | CCOC(=O)N1CCC(Nc2cccc(C)c2)CC1 | inactive: 3.7%
33 | Clc1ccc(NC2CCN(Cc3ccccc3)CC2)cc1 | inactive: 5.53%
34 | Fc1cccc(NC2CCN(CCc3ccccc3)CC2)c1 | inactive: 9.85%
35 | CCCN1CCC(Nc2ccc(Cl)cc2)CC1 | inactive: -7.46%
36 | CN1CCC(Nc2ccccc2Cl)CC1 | inactive: -0.21%
37 | CN(C)C1(CNC(=O)c2cc3c(s2)CCC3)CCCCC1 | inactive: 5.12%
38 | [C-]#N.[K+].c1ccc2c(c1)OCCOCCOc1ccccc1OCCOCCO2 | inactive: -0.07%
39 | CC1CN(Cc2ccccc2)CCC1=O (centres undefined) | inactive: 15.9%
40 | CC(C)(C)OC(=O)N1CCC(Nc2ccc(Cl)cc2Cl)CC1 | inactive: -16.8%
41 | CN1CCC(Nc2ccccc2F)CC1 | inactive: 21.3%
42 | CCN1CCC(Nc2ccc(F)cc2)CC1 | inactive: 35%
43 | CCOP(=O)(OCC)SCC(=O)N(CC)CC | inactive: -2.6%
44 | O=C(NCC1(N2CCCCC2)CCCCC1)c1ccc([N+](=O)[O-])s1 | inactive: 8.95%
45 | CC1CN(C)C(C)CC1Nc1ccccc1 (centres undefined) | inactive: 5.82%
46 | O=C(O)C1(Nc2ccccc2)CCN(Cc2ccccc2)CC1 | inactive: 14.4%

Row | SMILES | inhibition
47 | CCCOc1ccc(C(=O)NCC2(N(C)C)CCCCC2)cc1 | inactive: -3.48%
48 | CC(C)(C)OC(=O)N1CCC(Nc2ccc(F)cc2F)CC1 | inactive: -4.42%
49 | CN1CCC(Nc2ccc(F)c(Cl)c2)CC1 | inactive: 29.9%
50 | Fc1ccc(NC2CCN(Cc3ccccc3)CC2)cc1F | inactive: 14.5%
51 | COc1ccc(NC2CCN(Cc3ccncc3)CC2)cc1 | inactive: 16.9%
52 | CN1CCC(Nc2ccc(Cl)cc2)CC1 | inactive: 21.3%
53 | CN(C)C1(CNC(=O)c2cc(=O)[nH]c3ccccc23)CCCCC1 | inactive: -1.31%
54 | COc1cc(OC)cc(C(=O)NCC2(N3CCOCC3)CCCCC2)c1 | inactive: 0.3%
55 | CCC(CO)(C(=O)OC1CN2CCC1CC2)c1ccccc1 (centres undefined) | inactive: 5.79%
56 | NC(=O)C1(Nc2ccccc2)CCN(Cc2ccccc2)CC1 | inactive: 8.23%
57 | COc1ccc(C(=O)NCC2(N3CCOCC3)CCCCC2)cc1OC | inactive: -2.38%
58 | COc1cc(C(=O)NCC2(N3CCOCC3)CCCCC2)cc(OC)c1C | inactive: 11%
59 | CN1CCC(Nc2ccc(F)cc2)CC1 | inactive: 29.6%
60 | O=C1CCN(CCc2ccccc2)CC1 | inactive: 2.29%
61 | CCOC(=O)N1CCC(Nc2ccc(Cl)cc2)CC1 | inactive: -10.7%
62 | CCOC(=O)N1CCC(Nc2ccc(C)cc2)CC1 | inactive: 8.5%
63 | O=C(NCC1(N2CCOCC2)CCCCC1)c1ccc2c(c1)OCO2 | inactive: -0.04%
64 | COc1cccc(OC)c1CN1CCC(=O)CC1 | inactive: 8.31%
65 | COc1ccc(CCN2CCC(Nc3ccc(OC)cc3)CC2)cc1 | inactive: -2.03%
66 | CC(=O)N1CCN(C/C=C/c2ccccc2[N+](=O)[O-])CC1 | inactive: 3.55%
67 | N#Cc1ccc(C(=O)NCC2(N3CCCCC3)CCCCC2)cc1 | inactive: -2.27%
68 | c1ccc(CN2CCC(Nc3ccccc3)CC2)cc1 | inactive: 21.2%
69 | CCCN1CCC(Nc2cc(OC)cc(OC)c2)CC1 | inactive: 21%

From PubChem BioAssay AID1259374 (The Scripps Research Institute Molecular Screening Center, 2018)
